The results in this text go back to paper PMC8682993 (Science Advances, 2021).

The target in this test is full-length yeast Hsp90 (Hsp82) (yeast, UniProt P02829). Put plainly: fluorescence polarisation. In general terms: Polarisation of emitted light reports the rotation of a fluorescent probe.

Values joined by “and” are separate entries in the source; they are usually repeats but may differ in a detail not shown here. Identical values can stand only once.

B1: human Tau isoform D (natural protein)
chain: not shown
modifications: ATTO 488 N-hydroxysuccinimide ester on the N terminus (anisotropy and AUC); 15N-labeled in the Tau-observed NMR experiment
As for B1, the Kd was 5.3 µM and 5 µM and 5.4 µM and 5.5 µM.

The term Kd denotes the constant that tells how readily two partners part at equilibrium. High values mean weaker binding, low ones tighter binding.
